Literature values as cited in PubChem BioAssay AID977610.
pKi: −log10 of the molar value.

Tests used:
Test in all cases: PubChem AID 977610
[1] = molecular target: chimeric PDE5/PDE6 catalytic domain; settings: PDB protein-ligand complexes, literature Ki; protein: chimeric PDE5/PDE6 catalytic domain; PDB entry 3JWR
[2] = molecular target: UDP-glucose 6-dehydrogenase, KpUgd; settings: PDB protein-ligand complexes, literature Ki; protein: UDP-glucose 6-dehydrogenase, KpUgd; PDB entry 3PJG
[3] = molecular target: protein-tyrosine phosphatase 1b; settings: PDB protein-ligand complexes, literature Ki; protein: protein-tyrosine phosphatase 1b; PDB entry 1C85
Cathepsin B = settings: PDB protein-ligand complexes, literature Ki; protein: Cathepsin B; PDB entry 3AI8
[4] = molecular target: xenotropic murine leukemia virus-related (XMVR) virus protease; settings: PDB protein-ligand complexes, literature Ki; protein: xenotropic murine leukemia virus-related (XMVR) virus protease; PDB entry 3SM1
glutamate racemase = settings: PDB protein-ligand complexes, literature Ki; protein: glutamate racemase; PDB entry 1B74
serum paraoxonase = settings: PDB protein-ligand complexes, literature Ki; protein: serum paraoxonase; PDB entry 3SRG
[5] = molecular target: Mevalonate diphosphate decarboxylase(S192A mutant); settings: PDB protein-ligand complexes, literature Ki; protein: Mevalonate diphosphate decarboxylase(S192A mutant); PDB entry 4DPU
[6] = molecular target: Mevalonate diphosphate decarboxylase; settings: PDB protein-ligand complexes, literature Ki; protein: Mevalonate diphosphate decarboxylase; PDB entry 4DPT
[7] = molecular target: Mitogen-activated protein kinase 1; settings: PDB protein-ligand complexes, literature Ki; protein: Mitogen-activated protein kinase 1; PDB entry 3I5Z
[8] = molecular target: Acylneuraminate cytidylyltransferase; settings: PDB protein-ligand complexes, literature Ki; protein: Acylneuraminate cytidylyltransferase; PDB entry 3E81
[9] = molecular target: rat androgen receptor ligand binding domain; settings: PDB protein-ligand complexes, literature Ki; protein: rat androgen receptor ligand binding domain; PDB entry 3G0W
[10] = molecular target: catalytic domain of TACE (TNF-alpha converting enzyme); settings: PDB protein-ligand complexes, literature Ki; protein: catalytic domain of TACE (TNF-alpha converting enzyme); PDB entry 3LE9
[11] = molecular target: Farnesyl pyrophosphate synthase; settings: PDB protein-ligand complexes, literature Ki; protein: Farnesyl pyrophosphate synthase; PDB entry 3RYW
[12] = molecular target: Protein tyrosine phosphatase 1B (PTP-1B); settings: PDB protein-ligand complexes, literature Ki; protein: Protein tyrosine phosphatase 1B (PTP-1B); PDB entry 2ZN7
[13] = molecular target: Toluene-4-monooxygenase system protein , T4moHD; settings: PDB protein-ligand complexes, literature Ki; protein: Toluene-4-monooxygenase system protein , T4moHD; PDB entry 3Q2A
[14] = molecular target: Retinol-binding protein 4 (RBP4); settings: PDB protein-ligand complexes, literature Ki; protein: Retinol-binding protein 4 (RBP4); PDB entry 3FMZ
[15] = molecular target: Fructose-bisphosphate aldolase(Class II Fba from h. pylori); settings: PDB protein-ligand complexes, literature Ki; protein: Fructose-bisphosphate aldolase(Class II Fba from h. pylori); PDB entry 3N9R
Collagenase 3, MMP-13 = settings: PDB protein-ligand complexes, literature Ki; protein: Collagenase 3, MMP-13; PDB entry 3LJZ
[16] = molecular target: arylmalonate decarboxylase (AMDase) from Bordatella bronchiseptic; settings: PDB protein-ligand complexes, literature Ki; protein: arylmalonate decarboxylase (AMDase) from Bordatella bronchiseptic; PDB entry 3IP8
[17] = molecular target: RNA-directed RNA polymerase NS5(YF-); settings: PDB protein-ligand complexes, literature Ki; protein: RNA-directed RNA polymerase NS5(YF-); PDB entry 3EVF
[18] = molecular target: calmodulin-sensitive adenylate cyclase; settings: PDB protein-ligand complexes, literature Ki; protein: calmodulin-sensitive adenylate cyclase; PDB entry 1S26
[19] = molecular target: Phosphopantetheine Adenylyltranferase from M. tuberculosis(MtPPAT); settings: PDB protein-ligand complexes, literature Ki; protein: Phosphopantetheine Adenylyltranferase from M. tuberculosis(MtPPAT); PDB entry 3NBA
[20] = molecular target: Alpha-N-acetylgalactosaminidase; settings: PDB protein-ligand complexes, literature Ki; protein: Alpha-N-acetylgalactosaminidase; PDB entry 4DO4
metallo-beta-lactamase = settings: PDB protein-ligand complexes, literature Ki; protein: metallo-beta-lactamase; PDB entry 1A7T

SMILES: CC(C)Cn1c(=O)n(C)c(=O)c2[nH]cnc21
- pKi [1]: 8.07

SMILES: O=C(O)[C@H]1O[C@H](OP(=O)(O)OP(=O)(O)OC[C@H]2O[C@@H](n3ccc(=O)[nH]c3=O)[C@H](O)[C@@H]2O)[C@H](O)[C@@H](O)[C@@H]1O
- pKi [2]: 3.55

SMILES: O=C(O)C(=O)Nc1ccccc1C(=O)O
- pKi [3]: 4.64

SMILES: O=[N+]([O-])c1ccc(O)c2ncccc12
- pKi (Cathepsin B): 3.81

SMILES: CC(C)CC(=O)N[C@H](C(=O)N[C@H](C(=O)N[C@@H](CC(C)C)[C@@H](O)CC(N)=O)C(C)C)C(C)C
- pKi [4]: 5.84

SMILES: NC(=O)CC[C@@H](N)C(=O)O
- pKi (glutamate racemase): 1.30

SMILES: O=c1ccc2ccccc2[nH]1
- pKi (serum paraoxonase): 5.70

SMILES: O=C(O)C[C@@](O)(CF)CCOP(=O)(O)OP(=O)(O)O
- pKi [5]: 7.30
- pKi [6]: 7.30

SMILES: Cc1cnc(Nc2ccccc2)nc1-c1c[nH]c(C(=O)N[C@H](CO)c2ccccc2)c1
- pKi [7]: 8.70

SMILES: CC(=O)N[C@H]1[C@H]([C@H](O)[C@H](O)CO)O[C@](O)(C(=O)O)C[C@@H]1O
- pKi [8]: 1.43

SMILES: Cc1c(N=C2O[C@@H](C(F)(F)F)[C@@H]3[C@@H](O)CCN23)ccc(C#N)c1Cl
- pKi [9]: 9.52

SMILES: COc1ccc2[nH]n(C[C@@]3(c4ccccc4)NC(=O)NC3=O)c(=O)c2c1
- pKi [10]: 8.22

SMILES: CCCCCCCCCCOc1cncc(CC(P(=O)(O)O)P(=O)(O)O)c1
- pKi [11]: 6.24

SMILES: O=C(O)COc1c(C(=O)O)sc(-c2cccc(N(C(=O)c3ccccc3)C3CCCCC3)c2)c1Br
- pKi [12]: 7.89

SMILES: Nc1ccc(C(=O)O)cc1
- pKi [13]: 5.30

SMILES: O=C(O)c1ccccc1NC(=O)N1CCC(c2ccccc2C(F)(F)F)CC1
- pKi [14]: 8.08

SMILES: O=C(COP(=O)(O)O)N(O)CCCCO
- pKi [15]: 7.15

SMILES: O=C(C[C@@H](Cc1ccc(-c2ccc3c(c2)OCO3)cc1)C(=O)N[C@H]1c2ccccc2C[C@H]1O)NO
- pKi (Collagenase 3, MMP-13): 8.14

SMILES: O=P(O)(O)Cc1ccccc1
- pKi [16]: 2.28

SMILES: Cn1c[n+]([C@@H]2O[C@H](COP(=O)([O-])O)[C@@H](O)[C@H]2O)c2nc(N)[nH]c(=O)c21
- pKi [17]: 6.77

SMILES: Nc1ncnc2c1ncn2[C@@H]1O[C@H](COP(=O)(O)CP(=O)(O)OP(=O)(O)O)[C@@H](O)[C@H]1O
- pKi [18]: 3.07
- pKi [19]: 3.41

SMILES: CC(=O)N[C@H]1CN[C@H](CO)[C@H](O)[C@@H]1O
- pKi [20]: 7.29

SMILES: O=S(=O)(O)CCN1CCOCC1
- pKi (metallo-beta-lactamase): 1.64
